Drawing on ChEMBL document CHEMBL4007440, “Development of the First Generation of Disulfide-Based Subtype-Selective and Potent Covalent Pyruvate Dehydrogenase Kinase 1 (PDK1) Inhibitors” (J Med Chem, 2017), this text covers Ratio, Ratio Ki and Activity for 3 molecules.

By UniProt entry, the sequences of proteins in these tests, tags left out.
UniProt Q15120, whole entry, looked up: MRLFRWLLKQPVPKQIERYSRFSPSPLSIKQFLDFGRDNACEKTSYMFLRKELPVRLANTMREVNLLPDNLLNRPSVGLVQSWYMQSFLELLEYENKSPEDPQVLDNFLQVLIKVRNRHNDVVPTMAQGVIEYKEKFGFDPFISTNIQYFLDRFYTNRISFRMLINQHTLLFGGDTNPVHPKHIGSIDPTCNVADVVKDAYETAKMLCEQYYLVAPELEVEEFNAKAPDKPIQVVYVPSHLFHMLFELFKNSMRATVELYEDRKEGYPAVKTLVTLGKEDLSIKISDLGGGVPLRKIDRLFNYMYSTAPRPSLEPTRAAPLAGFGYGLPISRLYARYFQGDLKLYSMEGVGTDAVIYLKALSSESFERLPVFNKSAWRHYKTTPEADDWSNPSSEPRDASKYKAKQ

In test [1] the target is [Pyruvate dehydrogenase (acetyl-transferring)] kinase isozyme 3, mitochondrial (Homo sapiens, UniProt Q15120). Kind of test: Ratio of Kinact to Ki for PDK3 (unknown origin).
The species named for test [2] is Homo sapiens. Kind of test: Selectivity ratio of Ki for full length His6-tagged PDK1 (unknown origin) over Ki for PDK3 (unknown origin).
Test [3] has as its system Kelly. Nature of the test: Antiproliferative activity against human Kelly cells after 72 hrs by CCK8 assay. The class given is functional, cell-based. On the technique in general: Formazan colour is commonly taken as a measure of viable cells.
For test [4], the species on record is Homo sapiens. Kind of test: Selectivity ratio of Ki for full length His6-tagged PDK1 (unknown origin) over Ki for PDK2 (unknown origin).
Test [5] has as its target [Pyruvate dehydrogenase (acetyl-transferring)] kinase isozyme 2, mitochondrial (Homo sapiens, UniProt Q15119). Kind of test: Ratio of Kinact to Ki for PDK2 (unknown origin).

In the case of `S=C(SSC(=S)N1CCCOCC1)N1CCCOCC1`, the results for the Ratio in test [1] and in test [5] were 0.11 ×10³ /M/s and 0.12 ×10³ /M/s, respectively. In addition, the Ratio Ki in test [2] and in test [4] was 40 throughout. Moreover, the Activity result in test [3] is “Dose-dependent effect”.
Turning to `S=C(SSC(=S)N1CCOCC1)N1CCOCC1`, the values for the Ratio in test [1] and in test [5] were 0.45 ×10³ /M/s and 0.56 ×10³ /M/s, respectively. Moreover, in test [3], the Activity entry is “Dose-dependent effect”.
The corresponding values for `COC[C@@H]1COCCN1C(=S)SSC(=S)N1CCOC[C@H]1COC` are 0.59 ×10³ /M/s, 0.3 ×10³ /M/s and “Dose-dependent effect”.
